Data from patent US20260355312A1, “COMBINED THERAPY DRUG COMPRISING ANTI-HER2 BISPECIFIC ANTIBODY AND USE THEREOF” (JIANGSU ALPHAMAB BIOPHARMACEUTICALS CO., LTD., priority 2023, published 2026).

Experiments:
[1] = test system: domain IV of human HER2 protein; assay: Targeting of HER2 domain IV by Fab2 (heavy chain II); format: binding
[2] = test system: HER2-positive tumor cells; assay: In vitro anti-tumor cell proliferation experiments; format: cell-based
[3] = test system: HER2-positive tumor cells; assay: Antibody-dependent cell-mediated cytotoxicity; format: cell-based

Substance: KN026: anti-HER2 bispecific antibody; common light chains SEQ ID NO: 5, heavy chain I SEQ ID NO: 10, heavy chain II SEQ ID NO: 15
- targeting of domain IV of human HER2 protein; inhibition of HER2-related signaling [1]: targets domain IV of human HER2 protein to inhibit HER2-related signaling pathways
- inhibition of tumor cell proliferation [2]: inhibits tumor cell proliferation in a dose-dependent manner
- antibody-dependent cell-mediated cytotoxicity [3]: significant antibody-dependent cell-mediated cytotoxicity
